In PubChem BioAssay AID651610 (Broad Institute, 2012) one finds inhibition data, which are given here for 22 compounds.

Only a part is listed here, and it is no random draw. Some of these compounds have results that are not shown, active ones among them. Activity calls are given as the source filed them.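 Rule for the calls: active = mean replicate inhibition score of at least 50 and every replicate individually at or above 50; inconclusive = only one of the two criteria met; inactive = mean below 50 and not all replicates reaching 50.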

This assay is described as follows: blockers of JRFL envelope-mediated fusion – HeLa-JRFL effector, CEM21 target cells, luciferase, primary screen (AID 651610).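 Note: 0% = plate neutral controls and 100% = maraviroc near 300 nM.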 To be noted: HeLa-JRFL Env/CEM21 cell fusion, at 12.3 µM, stronger effect = higher value.
On to `O=C(NCC1(N2CCCCC2)CCCCC1)c1cccc(Cl)c1`, for which the inhibition is inactive: -4.44%. The value for `COc1cccc(C(=O)NCC2(N3CCCCC3)CCCCC2)c1` was inactive: 6.81%; that for `COc1ccc(Cl)cc1C(=O)NCC1(N(C)C)CCCCC1` was inactive: -9.52%; that for `COc1cc(C(=O)NCC2(N(C)C)CCCCC2)c([N+](=O)[O-])cc1OC` was inactive: -18.8%. The value for `CN(C)C1(CNC(=O)c2ccc(Br)cc2)CCCCC1` was inactive: 20%; that for `CC(C)Oc1ccc(C(=O)NCC2(N(C)C)CCCCC2)cc1` was inactive: 2.39%. Take `COc1ccc(Br)c(C(=O)NCC2(N3CCCCC3)CCCCC2)c1`: the inhibition is inactive: 17.4%. Consider `C=C(C)C#CC(O)(C(=O)OC1CCN(C)CC1)c1ccccc1` (configuration not stated), for which the inhibition is inactive: -18.6%.

In the case of `Cc1ccc(C(=O)NCC2(N3CCCCC3)CCCCC2)cc1`, the inhibition was inactive: 7.51%. For the compound `CCN(CC)CC(C)C(C)OC(=O)C(O)(c1ccccc1)c1ccccc1` (configuration not stated), the inhibition was inactive: 12.9%. Next, `COc1cc(SC)ccc1C(=O)NCC1(N(C)C)CCCCC1`: inactive: 17.2%; `CN1[C@@H]2CC[C@H]1CC(OC(=O)C(O)(c1ccccc1)c1ccccc1)C2` (some centres not stated): inactive: -9.65%; `O=C(NCC1(N2CCCCC2)CCCCC1)c1cc([N+](=O)[O-])ccc1Cl`: inactive: -7.74%. `CCN1CCCC(OC(=O)C2(O)c3ccccc3C=Cc3ccccc32)C1` (configuration not stated): the inhibition is inactive: -14.6%. Consider `Cc1cc(C(=O)NCC2(N3CCCCC3)CCCCC2)ccc1[N+](=O)[O-]`, for which the inhibition was inactive: -3.88%. With `O=C(NCC1(N2CCCCC2)CCCCC1)c1cccc(Br)c1`, the inhibition is inactive: 7.96%. With `COc1ccc(C(=O)NCC2(N(C)C)CCCCC2)cc1`, the inhibition was inactive: -1.38%. As for `C=CCN1CCN(CCOC(=O)C(O)(c2ccccc2)c2ccccc2)CC1`, the inhibition is inactive: 17.4%. Take `O=C(NCC1(N2CCCCC2)CCCCC1)c1cc(F)c(F)cc1Cl`: the inhibition is inactive: 16.5%.

Consider `Cc1ccccc1C(=O)NCC1(N2CCCCC2)CCCCC1`, for which the inhibition is inactive: -73.4%.

`CN(C)c1ccc(C(=O)NCC2(N(C)C)CCCCC2)cc1`: the inhibition is inactive: -3.09%. Regarding `CN(C)C1CCCC1OC(=O)C(O)(c1ccccc1)c1ccccc1` (configuration not stated), the inhibition is inactive: -15.4%.
